Binding of CDR-mutated scFvs to a peptide of the spike HR2 region

The measurements come from Engelhart et al. 2022 (doi:10.1038/s41597-022-01779-4) through the FLAb antibody collection.

Binding partner: SARS-CoV-2 spike HR2 peptide, sequence PDVDLGDISGINAS.

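Variants in AAYL50 differ from the parent at up to three CDR positions; double and triple changes were sampled at random. Affinity was read by AlphaSeq, a pooled yeast mating assay with surface-displayed partners. Mating (16 h, 30 °C) was followed by selection of diploids and sequencing of their barcodes. The ratio of observed to expected reads was calibrated, replicate by replicate, on BCL2-family standards whose Kd was known from biolayer interferometry. There are three technical replicates.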

Parent scFv Ab-14: VH joined to VL by a (GGGGS)3 linker. Changes lie in the light chain CDRs alone.
VH: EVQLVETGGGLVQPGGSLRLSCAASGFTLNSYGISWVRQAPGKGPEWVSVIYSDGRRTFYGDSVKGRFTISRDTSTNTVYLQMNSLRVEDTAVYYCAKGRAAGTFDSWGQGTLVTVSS
VL: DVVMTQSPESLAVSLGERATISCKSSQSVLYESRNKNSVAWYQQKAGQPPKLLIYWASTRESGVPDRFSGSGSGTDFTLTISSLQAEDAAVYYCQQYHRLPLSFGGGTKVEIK

Positions count from residue 1 of the parent VL; S33E puts E in place of S.
This list gathers variants with a substitution at S33 (VL, numbered from residue 1).
Scale: log10 of Kd in nM, estimated from mating counts; low values are strong binders.
Where no diploid with the target was found in that replicate, the entry reads "nd": below detection, most likely a poor binder, though not proof of it.

For S33E H98R R99I, the assay gave 0.99, 1.06, 0.97. Variant L30E S33V Q95S showed 4.53, 3.45, nd. Variant S33P A40F W56V gave nd, nd, 4.65. Variant S33T R60S showed 4.75, 3.97, 4.64. With S33F S38R R60A the result was nd, nd, nd.

For E32H S33I H98Q, the assay gave 4.65, 5.30, 6.13. With S33W R60K Q95W the result was nd, nd, 4.33. For S28W S33G, the assay gave 1.19, 1.36, 1.27. Variant S28R L30P S33Q showed 0.97, 1.16, 1.03. For L30N S33L N35D, the assay gave 0.92, 1.11, 0.95.

For S33K S38E L102F, the assay gave nd, nd, nd. With S33N T59K L102N the result was 3.41, nd, 4.15. Variant V29M S33L Q95L gave 1.46, 1.41, 1.63. For V29Y S33H K36H, the assay gave 1.99, 2.38, 2.64. Variant S33T N37V P101W gave nd, 3.64, nd.

For V29T S33E Q96K, the assay gave 4.44, nd, nd. Variant S33G T59M H98Y gave 0.87, 1.09, 0.87. With S25I S33L R60S the result was nd, nd, nd. With S26H Y31N S33N the result was 1.57, 1.62, 1.80. Variant S33F A57F Q96H showed nd, nd, nd.

Variant S25Q S33A N37T gave nd, 3.41, 3.61. Variant S33P R34K S58K showed 1.10, 1.42, 0.79. Variant S33W A57R Q95M gave nd, nd, nd. Variant S33Y V39H showed nd, nd, nd. With S33L W56M S58F the result was nd, nd, 3.44.

For Y31H S33C E61A, the assay gave 1.59, 1.69, 1.73. For Y31G S33H L102H, the assay gave nd, nd, nd. Variant S33M R34N Q95P showed 4.64, 3.57, nd. With S33P V39Y T59H the result was nd, nd, nd. Variant S25Q S33Y R34E gave 0.50, 0.66, 0.67.

For L30I S33N K36I, the assay gave 0.95, 1.15, 1.08. For V29W S33Y H98R, the assay gave 4.46, nd, 4.13. Variant S33T Y97Q showed nd, 4.88, nd. With S25C S33A the result was 1.10, 1.20, 1.23. With S33C P101E S103A the result was nd, nd, 4.14.

Variant K24L S33L R34Y gave 1.89, 1.86, 1.43. For S33G W56Q Q96W, the assay gave 0.41, 0.71, 0.63. With S25M E32P S33N the result was -0.09, 0.18, 0.07. For S33L V39E T59V, the assay gave nd, nd, nd. For S26D S28Q S33K, the assay gave 2.55, nd, nd.

Variant K24E S33M Y97E gave nd, nd, nd. For S26C S33A S38C, the assay gave 3.74, nd, nd. Variant K24H S33P showed 0.54, 1.05, 0.98. Variant K24R S33V K36D showed 2.13, 1.60, 1.43. Variant L30F S33E H98Q showed 0.63, 0.73, 0.60.

For reference, 8 entries of the list once more:

| changes | log10 Kd (nM) by replicate |
|---|---|
| S33L V39E T59V | nd, nd, nd |
| K24H S33P | 0.54, 1.05, 0.98 |
| V29M S33L Q95L | 1.46, 1.41, 1.63 |
| S25Q S33A N37T | nd, 3.41, 3.61 |
| L30E S33V Q95S | 4.53, 3.45, nd |
| S33K S38E L102F | nd, nd, nd |
| S25M E32P S33N | -0.09, 0.18, 0.07 |
| S33W A57R Q95M | nd, nd, nd |

In this assay the parent's reference entry averaged 0.65; its copy inside this library read 1.68.
As a blank, each scFv also met three strains without target: over library AAYL50, 18% of these pairings were detected, typically at 4.19 and seldom below 2.99.